Molecular target: SPIN3 (Homo sapiens, UniProt Q5JUX0)
Settings: chemiprecipitation

Amino acid sequences for entries named in this document (tags omitted).
UniProt Q5JUX0, whole entry: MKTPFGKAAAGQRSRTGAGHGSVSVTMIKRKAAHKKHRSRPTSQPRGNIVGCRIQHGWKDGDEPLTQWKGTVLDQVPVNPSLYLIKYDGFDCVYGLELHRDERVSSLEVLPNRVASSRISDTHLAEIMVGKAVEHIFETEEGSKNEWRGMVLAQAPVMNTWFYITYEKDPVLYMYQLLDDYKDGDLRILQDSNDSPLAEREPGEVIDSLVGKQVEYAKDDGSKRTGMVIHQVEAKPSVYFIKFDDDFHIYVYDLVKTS

O=C(c1ccc(C(=O)N2CCC(CCN3CCCC3)CC2)c(Nc2ccc(OCN3CCCC3)cc2)c1)N1CCC(CCN2CCCC2)CC1 [EML631]
interaction of tagged compound with SPIN3: no interaction

Reference: paper PMC5831360 (Nature chemical biology, 2017)
